# From article PMC3351444, “Molecular Evolution of a Peptide GPCR Ligand Driven by Artificial Neural Networks” (PLoS ONE, 2012)
# Target: T1, human CMKLR1 (Homo sapiens, UniProt Q99788)
# T1 construct: host or cells: HEK293A (Invitrogen), stably expressing human Gα15
# T1 sequence (Q99788 1-373): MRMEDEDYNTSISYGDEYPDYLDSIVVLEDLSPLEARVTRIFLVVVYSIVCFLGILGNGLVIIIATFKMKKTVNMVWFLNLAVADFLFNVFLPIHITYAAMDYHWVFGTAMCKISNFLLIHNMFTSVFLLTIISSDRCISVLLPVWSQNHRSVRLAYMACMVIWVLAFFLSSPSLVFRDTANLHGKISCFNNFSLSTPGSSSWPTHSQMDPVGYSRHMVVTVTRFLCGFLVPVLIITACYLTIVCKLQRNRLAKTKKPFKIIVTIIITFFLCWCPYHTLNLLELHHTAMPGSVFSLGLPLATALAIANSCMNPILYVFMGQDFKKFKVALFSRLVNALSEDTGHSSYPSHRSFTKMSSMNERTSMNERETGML
# Test: Ca2+ mobilization (CellLux imaging) agonist assay in HEK293A cells expressing CMKLR1 and Gα15
# Format: cell-based
# Method: HEK293A cells (Invitrogen) expressing CMKLR1 and Gα15 were seeded at 5*10^4 cells/well in a poly-D-lysine coated 96-well black well/clear bottom plate (BD Falcon) and cultured overnight. From eighteen to twenty-four hours later, cells were loaded with FLUO4-AM (Invitrogen). Then the cells were washed two times with C1 solution (130 mM NaCl, 5 mM KCl, 10 mM HEPES pH 7.4, 2 mM CaCl2, and 10 mM Glucose). After the final wash, a 100 µL of residual volume remained on the cells. Peptides were dissolved in 10% DMSO to a concentration of 1 mM and were diluted in C1 solution with 0.1 % BSA. They were aliquoted as 2x solutions in 96-well plates and were simultaneously transferred by the robotic system within the imager from the ligand plate to the cell plate. […] Fluorescence data was generated in duplicate and experiments were repeated for at least three times. […] For the calculation of concentration-response curves, signals of two wells receiving the same concentration of test substances were averaged and the fluorescence changes of corresponding buffer C1 wells were subtracted. Signals were normalized to background fluorescence. For the calculation of EC50 values, plots of amplitude versus concentrations were prepared in SigmaPlot 11.
smiles,measurement,value
C[C@H](NC(=O)[C@H](Cc1ccccc1)NC(=O)[C@H](CCC(N)=O)NC(=O)CNC(=O)[C@@H]1CCCN1C(=O)[C@H](Cc1ccccc1)NC(=O)[C@@H](N)Cc1ccc(O)cc1)C(=O)N[C@@H](Cc1ccccc1)C(=O)NCC(=O)O,EC50,0.79 ± 0.54 nM
